From patent publication US9295651B2, “Nanoconjugates and nanoconjugate formulations” (priority 2009, dated 2016)
Several values for one entry are separate records, joined by “and”; a condition that tells them apart may be missing. Equal entries are not always repeated.

Test: Lyophilization of PLGA-mPEG NPs in the presence of lyoprotectants, reconstitution with water, DLS
Type: physicochemical
Set-up: key to Aggr. (visible large aggregates): Y = aggregates observed; N = no aggregates observed
Settings: for Size in nm: PLGA-mPEG NPs lyophilized and reconstituted
Procedure: Lyophilization of PLGA-mPEG NPs in the presence of lyoprotectants. An acetone solution of PLGA-mPEG (5 mg/mL, 100 μL) was added dropwise into a vigorously stirred water solution (4 mL) containing the NCs to make the PLGA-mPEG NPs. A lyoprotectant was added to the vigorously stirred NC solution at the selected lyoprotectant/NC mass ratio (varying from 2 to 20). The solution was then lyophilized, reconstituted with 2 mL water and stirred for 5 minutes. The sizes of the resulting NCs were analyzed by DLS.

bovine serum albumin [BSA]
prevention of NP aggregation during lyophilization (in words) (PLGA-mPEG5k NPs, lyoprotectant/NP mass ratio up to 10): absolutely no precipitates
Size in nm (lyoprotectant/NP mass ratio 2): 512 nm and 511.8 nm
Size in nm (lyoprotectant/NP mass ratio 6): 176 nm and 175.9 nm
Size in nm (lyoprotectant/NP mass ratio 10): 114 nm and 114.1 nm
Aggr. (visible large aggregates) (lyoprotectant/NP mass ratio 2): Y
Distr. No. (number of particle size distributions) (lyoprotectant/NP mass ratio 2): 2
PDI (lyoprotectant/NP mass ratio 2): 0.392
SL/SO (ratio of lyophilized NP size to pre-lyophilized NP size) (lyoprotectant/NP mass ratio 2): 8.2 and 8.21
Aggr. (visible large aggregates) (lyoprotectant/NP mass ratio 6): N
Distr. No. (number of particle size distributions) (lyoprotectant/NP mass ratio 6): 1
PDI (lyoprotectant/NP mass ratio 6): 0.343
Aggr. (visible large aggregates) (lyoprotectant/NP mass ratio 10): N
Distr. No. (number of particle size distributions) (lyoprotectant/NP mass ratio 10): 1
PDI (lyoprotectant/NP mass ratio 10): 0.110
SL/SO (ratio of lyophilized NP size to pre-lyophilized NP size) (lyoprotectant/NP mass ratio 10): ~1.8 and 1.83
